Reference: PMC11904993, “Humanized Candida and NanoBiT Assays Expedite Discovery of Bdf1 Bromodomain Inhibitors With Antifungal Potential” (Advanced Science, 2025)

Sequences of proteins named here, by UniProt entry; tags and fusion partners are left off.
CgBdf1 BD1 (Candida glabrata, UniProt Q6FWV7), UniProt Q6FWV7, entry or part of it: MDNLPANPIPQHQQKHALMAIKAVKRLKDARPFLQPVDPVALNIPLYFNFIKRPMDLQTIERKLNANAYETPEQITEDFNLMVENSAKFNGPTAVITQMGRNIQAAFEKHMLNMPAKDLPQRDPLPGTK
CgBdf1 BD2 (Candida glabrata, UniProt Q6FWV7), UniProt Q6FWV7, entry or part of it: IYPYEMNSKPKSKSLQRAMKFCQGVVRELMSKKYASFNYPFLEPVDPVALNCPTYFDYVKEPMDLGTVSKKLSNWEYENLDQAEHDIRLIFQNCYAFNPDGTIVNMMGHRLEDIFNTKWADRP

Experiments:
[1] = molecular target: CgBdf1 BD1 (Candida glabrata, UniProt Q6FWV7); experiment: HTRF assay, inhibition of H4ac4 peptide binding; set-up: species or system C. glabrata; conditions: CgBD1, replicate experiments
[2] = molecular target: CgBdf1 BD2 (Candida glabrata, UniProt Q6FWV7); format: binding, C. glabrata; conditions: CgBD2, replicate experiments

Substance: I-BET151
- HTRF signal relative to no-compound control (Figure S4A raw data) ([1]; Conc 2.10 nM): 93.14 and 84.00 and 89.21
- HTRF signal relative to no-compound control (Figure S4A raw data) ([1]; Conc 13.11 nM): 94.62 and 107.66 and 86.70
- HTRF signal relative to no-compound control (Figure S4A raw data) ([1]; Conc 32.77 nM): 92.12 and 91.61 and 103.42
- HTRF signal relative to no-compound control (Figure S4A raw data) ([1]; Conc 81.92 nM): 95.66 and 146.10 and 95.63
- HTRF signal relative to no-compound control (Figure S4A raw data) ([1]; Conc 204.8 nM): 89.54 and 82.34 and 87.03
- HTRF signal relative to no-compound control (Figure S4A raw data) ([1]; Conc 512 nM): 80.84 and 85.95 and 68.82
- HTRF signal relative to no-compound control (Figure S4A raw data) ([1]; Conc 1280 nM): 54.18 and 66.91 and 59.99
- HTRF signal relative to no-compound control (Figure S4A raw data) ([1]; Conc 3200 nM): 31.81 and 43.33 and 38.44
- HTRF signal relative to no-compound control (Figure S4A raw data) ([1]; Conc 8000 nM): 12.77 and 19.19 and 12.15
- HTRF signal relative to no-compound control (Figure S4A raw data) ([1]; Conc 20000 nM): 17.74 and 10.62 and 8.74
- HTRF signal relative to no-compound control (Figure S4A raw data) ([2]; Conc 2.10 nM): 91.90 and 111.23 and 90.11
- HTRF signal relative to no-compound control (Figure S4A raw data) ([2]; Conc 13.11 nM): 75.25 and 95.57 and 101.57
- HTRF signal relative to no-compound control (Figure S4A raw data) ([2]; Conc 32.77 nM): 87.81 and 96.57 and 125.47
- HTRF signal relative to no-compound control (Figure S4A raw data) ([2]; Conc 81.92 nM): 90.53 and 89.01 and 91.69
- HTRF signal relative to no-compound control (Figure S4A raw data) ([2]; Conc 204.8 nM): 70.96 and 74.26 and 73.64
- HTRF signal relative to no-compound control (Figure S4A raw data) ([2]; Conc 512 nM): 48.37 and 68.63 and 54.62
- HTRF signal relative to no-compound control (Figure S4A raw data) ([2]; Conc 1280 nM): 18.91 and 29.96 and 36.91
- HTRF signal relative to no-compound control (Figure S4A raw data) ([2]; Conc 3200 nM): 11.43 and 17.11 and 16.90
- HTRF signal relative to no-compound control (Figure S4A raw data) ([2]; Conc 8000 nM): 4.83 and 15.36 and 17.34
- HTRF signal relative to no-compound control (Figure S4A raw data) ([2]; Conc 20000 nM): 4.70 and 22.26 and 22.30

Values joined by “and” are separate entries in the source; they are usually repeats but may differ in a detail not shown here. Equal entries are not always repeated. Where two headings read alike, the source gives them in different places.
